US6730699B2, “Water soluble paclitaxel derivatives” (priority 2001, dated 2004)

Tested on: MDA-435-Lung2 cells (MDA-MB-435 human breast cancer)
Type: in vivo, nude mice

Poly-Glutamic Acid-Paclitaxel [PG-TXL]
Lung metastases (mice with lung metastases/mice with tumors) (60 mg/kg single i.v.): 5/8 (62.5%) | Mean tumor wt at autopsy (60 mg/kg single i.v.): 1.23 ± 0.38 g | No. tumors regressed at time of autopsy (60 mg/kg single i.v.): 2/10 | Lung metastases (mice with lung metastases/mice with tumors) (120 mg/kg single i.v.): ¼ (25%) | Mean tumor wt at autopsy (120 mg/kg single i.v.): 0.925 ± 0.12 g | No. tumors regressed at time of autopsy (120 mg/kg single i.v.): 4/8 | mice in which tumors shrank/disappeared (highest dose (120 mg/kg)): 50%

Where two headings read alike, the source gives them in different places.
